Laboratory results published in ChEMBL document CHEMBL2057127, “Design, synthesis, modeling, biological evaluation and photoaffinity labeling studies of novel series of photoreactive benzamide probes for histone deacetylase 2” (Bioorg Med Chem Lett, 2012).

By UniProt entry, the sequences of proteins in these tests, tags left out.
UniProt Q92769, whole entry: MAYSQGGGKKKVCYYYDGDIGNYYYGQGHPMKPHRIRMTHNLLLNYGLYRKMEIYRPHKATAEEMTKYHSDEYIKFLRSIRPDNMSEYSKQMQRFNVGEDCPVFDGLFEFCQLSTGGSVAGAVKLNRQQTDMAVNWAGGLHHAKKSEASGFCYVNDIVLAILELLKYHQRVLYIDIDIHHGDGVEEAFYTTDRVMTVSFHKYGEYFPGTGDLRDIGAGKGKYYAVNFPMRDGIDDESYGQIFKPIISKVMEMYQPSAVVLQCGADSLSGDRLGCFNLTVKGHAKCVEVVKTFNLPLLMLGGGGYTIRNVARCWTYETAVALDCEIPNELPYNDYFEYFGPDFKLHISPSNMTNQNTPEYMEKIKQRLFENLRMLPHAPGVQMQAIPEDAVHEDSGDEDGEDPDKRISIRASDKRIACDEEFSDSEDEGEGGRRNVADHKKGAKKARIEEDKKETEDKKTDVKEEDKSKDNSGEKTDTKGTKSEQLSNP
UniProt Q13547, whole entry: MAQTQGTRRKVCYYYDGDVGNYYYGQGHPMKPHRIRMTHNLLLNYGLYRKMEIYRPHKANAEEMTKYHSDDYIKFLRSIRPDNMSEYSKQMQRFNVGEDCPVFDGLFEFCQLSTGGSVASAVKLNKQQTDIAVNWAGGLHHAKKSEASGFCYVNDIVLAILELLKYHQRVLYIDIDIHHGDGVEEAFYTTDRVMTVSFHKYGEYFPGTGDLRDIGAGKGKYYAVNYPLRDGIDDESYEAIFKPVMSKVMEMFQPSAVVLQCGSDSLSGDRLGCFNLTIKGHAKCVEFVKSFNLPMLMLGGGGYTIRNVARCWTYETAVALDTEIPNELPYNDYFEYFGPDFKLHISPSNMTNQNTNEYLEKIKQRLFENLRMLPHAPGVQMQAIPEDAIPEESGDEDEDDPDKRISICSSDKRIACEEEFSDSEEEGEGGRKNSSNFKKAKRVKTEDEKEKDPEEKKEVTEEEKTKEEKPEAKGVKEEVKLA

Experiments:
[1] = biological target: T1, Histone deacetylase 2 (Homo sapiens, UniProt Q92769)
[2] = biological target: T1, Histone deacetylase 2; remark: listed apart in the source
[3] = biological target: T1, Histone deacetylase 2; remark: listed apart in the source
[4] = biological target: T2, Histone deacetylase 1 (Homo sapiens, UniProt Q13547); assay: Inhibition of human recombinant HDAC1 using Boc-L-Lys (Ac)-AMC as substrate preincubated with compound for 5 mins measured after 35 mins by spectrofluorometric analysis
[5] = biological target: T2, Histone deacetylase 1; assay: Inhibition of human recombinant HDAC1 using Boc-L-Lys (Ac)-AMC as substrate preincubated with compound for 3 hrs measured after 35 mins by spectrofluorometric analysis

| Compound | IC50 [1] [nM] | IC50 [2] [nM] | IC50 [3] [nM] | IC50 [4] [nM] | IC50 [5] [nM] |
| --- | --- | --- | --- | --- | --- |
| [N-]=[N+]=NCc1cc(COC(=O)NCc2ccc(C(=O)Nc3cc(-c4cccs4)ccc3N)cc2)cc(N=[N+]=[N-])c1 | 300 | 1000 | 7100 | 2800 | 1210 |
| [N-]=[N+]=Nc1ccc(C(=O)Nc2cc(-c3ccccc3)ccc2N)cc1 |  | 1050 | 5130 |  |  |
| [N-]=[N+]=Nc1ccc(C(=O)Nc2cc(-c3cccs3)ccc2N)cc1 |  | 690 | 3200 |  |  |

Other lines, results leading:

| IC50 [1] [nM] | IC50 [2] [nM] | IC50 [3] [nM] | IC50 [4] [nM] | IC50 [5] [nM] | Compound |
| --- | --- | --- | --- | --- | --- |
| 350 | 1100 | 7000 |  |  | [N-]=[N+]=NCc1cc(COC(=O)NCc2ccc(C(=O)Nc3cc(-c4ccccc4)ccc3N)cc2)cc(N=[N+]=[N-])c1 |
| 740 | 14000 | 38000 | 14500 | 1880 | Nc1ccc(-c2ccccc2)cc1NC(=O)c1ccc(CNC(=O)OCc2ccccc2)cc1 |
